Like-named read-outs stand apart in the source and are kept apart here.
What was measured:
[1] = tested on: MCF7 (Breast Cancer); assay: NCI DTP tumor cell line screen (SRB), MCF7
[2] = tested on: HOP-92 (Non-Small Cell Lung Cancer); assay: NCI DTP tumor cell line screen (SRB), HOP-92; conditions: HOP-92, Log10 Concentration −8.0
[3] = tested on: OVCAR-4 (Ovarian Cancer); assay: NCI DTP tumor cell line screen (SRB), OVCAR-4; conditions: OVCAR-4, Log10 Concentration −8.0
[4] = tested on: 786-0 (Renal Cancer); assay: NCI DTP tumor cell line screen (SRB), 786-0
[5] = tested on: UO-31 (Renal Cancer); assay: NCI DTP tumor cell line screen (SRB), UO-31; conditions: UO-31, Log10 Concentration −6.0
[6] = tested on: MOLT-4 (Leukemia); assay: NCI DTP tumor cell line screen (SRB), MOLT-4
[7] = tested on: MDA-MB-435 (Breast Cancer); assay: NCI DTP tumor cell line screen (SRB), MDA-MB-435
[8] = tested on: CAKI-1 (Renal Cancer); assay: NCI DTP tumor cell line screen (SRB), CAKI-1; conditions: CAKI-1, Log10 Concentration −7.0
[9] = tested on: SK-OV-3 (Ovarian Cancer); assay: NCI DTP tumor cell line screen (SRB), SK-OV-3; conditions: SK-OV-3, Log10 Concentration −8.0
[10] = tested on: UACC-62 (Melanoma); assay: NCI DTP tumor cell line screen (SRB), UACC-62; conditions: UACC-62, Log10 Concentration −8.0
[11] = tested on: NCI-H522 (Non-Small Cell Lung Cancer); conditions: NCI-H522, Log10 Concentration −7.0
[12] = tested on: SN12C (Renal Cancer); assay: NCI DTP tumor cell line screen (SRB), SN12C
[13] = tested on: DU-145 (Prostate Cancer); assay: NCI DTP tumor cell line screen (SRB), DU-145; conditions: DU-145, Log10 Concentration −7.0
[14] = tested on: OVCAR-5 (Ovarian Cancer); assay: NCI DTP tumor cell line screen (SRB), OVCAR-5; conditions: OVCAR-5, Log10 Concentration −7.0
[15] = tested on: OVCAR-8 (Ovarian Cancer); assay: NCI DTP tumor cell line screen (SRB), OVCAR-8; conditions: OVCAR 8, Log10 Concentration −7.0
[16] = tested on: COLO 205 (Colon Cancer); assay: NCI DTP tumor cell line screen (SRB), COLO 205; conditions: COLO 205, Log10 Concentration −5.0
[17] = tested on: HS 578T (Breast Cancer); assay: NCI DTP tumor cell line screen (SRB), HS 578T; conditions: Log10 Concentration −8.0
[18] = tested on: HOP-62 (Non-Small Cell Lung Cancer); assay: NCI DTP tumor cell line screen (SRB), HOP-62; conditions: HOP-62, Log10 Concentration −6.0
[19] = tested on: OVCAR-3 (Ovarian Cancer); assay: NCI DTP tumor cell line screen (SRB), OVCAR-3; conditions: OVCAR-3, Log10 Concentration −7.0
[20] = tested on: SK-MEL-28 (Melanoma); assay: NCI DTP tumor cell line screen (SRB), SK-MEL-28
[21] = tested on: ACHN (Renal Cancer); assay: NCI DTP tumor cell line screen (SRB), ACHN; conditions: Log10 Concentration −7.0
[22] = tested on: HCT-15 (Colon Cancer); assay: NCI DTP tumor cell line screen (SRB), HCT-15
[23] = tested on: KM12 (Colon Cancer); assay: NCI DTP tumor cell line screen (SRB), KM12; conditions: KM12, Log10 Concentration −6.0
[24] = tested on: EKVX (Non-Small Cell Lung Cancer); assay: NCI DTP tumor cell line screen (SRB), EKVX
[25] = tested on: SK-MEL-2 (Melanoma); assay: NCI DTP tumor cell line screen (SRB), SK-MEL-2; conditions: SK-MEL-2, Log10 Concentration −6.0
[26] = tested on: SK-MEL-5 (Melanoma); assay: NCI DTP tumor cell line screen (SRB), SK-MEL-5; conditions: SK-MEL-5, Log10 Concentration −5.0
[27] = tested on: RXF 393 (Renal Cancer); assay: NCI DTP tumor cell line screen (SRB), RXF 393; conditions: RXF 383, Log10 Concentration −5.0
[28] = tested on: PC-3 (Prostate Cancer); assay: NCI DTP tumor cell line screen (SRB), PC-3; conditions: PC-3, Log10 Concentration −4.0
[29] = tested on: A549/ATCC (Non-Small Cell Lung Cancer); assay: NCI DTP tumor cell line screen (SRB), A549/ATCC
[30] = tested on: NCI-H23 (Non-Small Cell Lung Cancer)
[31] = tested on: LOX IMVI (Melanoma); assay: NCI DTP tumor cell line screen (SRB), LOX IMVI; conditions: Log10 Concentration −7.0
[32] = tested on: M14 (Melanoma); assay: NCI DTP tumor cell line screen (SRB), M14
[33] = tested on: MALME-3M (Melanoma); assay: NCI DTP tumor cell line screen (SRB), MALME-3M
[34] = tested on: HCT-116 (Colon Cancer); assay: NCI DTP tumor cell line screen (SRB), HCT-116; conditions: HCT-116, Log10 Concentration −7.0
[35] = tested on: NCI/ADR-RES (Breast Cancer)
[36] = tested on: K-562 (Leukemia); assay: NCI DTP tumor cell line screen (SRB), K-562; conditions: K-562, Log10 Concentration −7.0
[37] = tested on: BT-549 (Breast Cancer); assay: NCI DTP tumor cell line screen (SRB), BT-549; conditions: Log10 Concentration −4.0
[38] = tested on: CCRF-CEM (Leukemia); assay: NCI DTP tumor cell line screen (SRB), CCRF-CEM; conditions: Log10 Concentration −8.0
[39] = tested on: HT29 (Colon Cancer); assay: NCI DTP tumor cell line screen (SRB), HT29; conditions: Log10 Concentration −8.0

## 4-[5-(2-Phenanthrenyl)-3-(trifluoromethyl)-1H-pyrazol-1-yl]-phenyl -guanidine [Compound 71]
[1]; Log10 Concentration −5.0
  Percent Growth: −84%
[1]; Log10 Concentration −8.0
  Percent Growth: 93%
[2]
  Percent Growth: 86%
[3]
  Percent Growth: 81%
[4]; 786-0, Log10 Concentration −5.0
  Percent Growth: −93%
[4]; 786-0, Log10 Concentration −7.0
  Percent Growth: 96%
[4]; 786-0, Log10 Concentration −8.0
  Percent Growth: 96%
[5]
  Percent Growth: 87%
[6]; MOLT-4, Log10 Concentration −4.0
  Percent Growth: −54%
[6]; MOLT-4, Log10 Concentration −5.0
  Percent Growth: −54%
[6]; MOLT-4, Log10 Concentration −8.0
  Percent Growth: 81%
[7]; MDA-MB-435, Log10 Concentration −7.0
  Percent Growth: 89%
[7]; MDA-MB-435, Log10 Concentration −8.0
  Percent Growth: 89%
[8]
  Percent Growth: 89%
[9]
  Percent Growth: 93%
[10]
  Percent Growth: 81%
[11]
  Percent Growth: 87%
[12]; Log10 Concentration −6.0
  Percent Growth: 87%
[12]; Log10 Concentration −8.0
  Percent Growth: 88%
[13]
  Percent Growth: 87%
[14]
  Percent Growth: 86%
[15]
  Percent Growth: 96%
[16]
  Percent Growth: −96%
[17]
  Percent Growth: 89%
[18]
  Percent Growth: 96%
[19]
  Percent Growth: 81%
[20]; SK-MEL-28, Log10 Concentration −6.0
  Percent Growth: 86%
[20]; SK-MEL-28, Log10 Concentration −8.0
  Percent Growth: 93%
[21]
  Percent Growth: 81%
[22]; HCT-15, Log10 Concentration −6.0
  Percent Growth: 84%
[22]; HCT-15, Log10 Concentration −7.0
  Percent Growth: 81%
[23]
  Percent Growth: 87%
[24]; Log10 Concentration −4.0
  Percent Growth: −74%
[24]; Log10 Concentration −6.0
  Percent Growth: 54%
[25]
  Percent Growth: 87%
[26]
  Percent Growth: −74%
[27]
  Percent Growth: −61%
[28]
  Percent Growth: −26%
[29]; Log10 Concentration −6.0
  Percent Growth: 93%
[29]; Log10 Concentration −7.0
  Percent Growth: 96%
[29]; Log10 Concentration −8.0
  Percent Growth: 96%
[30]; NCI-H23, Log10 Concentration −7.0
  Percent Growth: 87%
[30]; NCI-H23, Log10 Concentration −8.0
  Percent Growth: 93%
[31]
  Percent Growth: 84%
[32]; M14, Log10 Concentration −6.0
  Percent Growth: 81%
[32]; M14, Log10 Concentration −8.0
  Percent Growth: 74%
[33]; Log10 Concentration −5.0
  Percent Growth: −87%
[33]; Log10 Concentration −7.0
  Percent Growth: 54%
[34]
  Percent Growth: 86%
[35]; Log10 Concentration −5.0
  Percent Growth: −12%
[35]; Log10 Concentration −7.0
  Percent Growth: 96%
[36]
  Percent Growth: 89%

## NCC(=O)Nc1ccc(-n2nc(C(F)(F)F)cc2-c2ccc3c(ccc4ccccc43)c2)cc1 [Compound 70, 2-Amino-N-{4-[5-(2-phenanthrenyl)-3-(trifluoromethyl)-1H-pyrazol-1-yl]-phenyl}-acetamide]
[37]
  Mean Optical Densities: 0.195
[22]; HCT-15, Log10 Concentration −4.0
  Mean Optical Densities: 0.278
[38]
  Mean Optical Densities: 0.893
[33]; Log10 Concentration −8.0
  Mean Optical Densities: 1.123
[39]
  Mean Optical Densities: 1.355
